Earlier results on eight substances are cited in patent publication US7235142B2, “Non-toxic corrosion-protection rinses and seals based on cobalt” (University of Dayton, priority 2002, dated 2007).

The conditions of this data set: pH 7.
Regarding Ammonium periodate, the “Solubility in Water” value was 0.13 mol/L. Regarding Pr4N^+ nitrate, the “Solubility in Water” value is ~1 × 10^0^ mole/L.

Consider Cobalt (II) iodide, for which the “Solubility in Water” value was 10.8 mol/L. As to Bu4N^+ nitrate, the “Solubility in Water” value was approximately 0.5 mol/L. Turning to Hafnium hydroxide, the “Solubility in Water” value is 0.00137 mol/L.

For the substance Hexaammine cobalt (III) nitrate, the “Solubility in Water” value is 0.049 mol/L. Consider Cobalt (II) bromide, for which the “Solubility in Water” value is reported as 3.05 × 10^0 mole/L. Et4N^+ nitrate: the “Solubility in Water” value is listed as ~5 × 10^0^ mole/L.
